# The entries are a selection whose mix differs from that of the whole data set. Some of these compounds have results that are not shown, active ones among them. Active and inactive are the calls of the source. Rule as the data show it: active = hERG blockade below about -20% or above about 20%; inactive = in between.
# The chains behind the UniProt entries cited, without tags or fusion partners.
# UniProt Q12809, whole entry: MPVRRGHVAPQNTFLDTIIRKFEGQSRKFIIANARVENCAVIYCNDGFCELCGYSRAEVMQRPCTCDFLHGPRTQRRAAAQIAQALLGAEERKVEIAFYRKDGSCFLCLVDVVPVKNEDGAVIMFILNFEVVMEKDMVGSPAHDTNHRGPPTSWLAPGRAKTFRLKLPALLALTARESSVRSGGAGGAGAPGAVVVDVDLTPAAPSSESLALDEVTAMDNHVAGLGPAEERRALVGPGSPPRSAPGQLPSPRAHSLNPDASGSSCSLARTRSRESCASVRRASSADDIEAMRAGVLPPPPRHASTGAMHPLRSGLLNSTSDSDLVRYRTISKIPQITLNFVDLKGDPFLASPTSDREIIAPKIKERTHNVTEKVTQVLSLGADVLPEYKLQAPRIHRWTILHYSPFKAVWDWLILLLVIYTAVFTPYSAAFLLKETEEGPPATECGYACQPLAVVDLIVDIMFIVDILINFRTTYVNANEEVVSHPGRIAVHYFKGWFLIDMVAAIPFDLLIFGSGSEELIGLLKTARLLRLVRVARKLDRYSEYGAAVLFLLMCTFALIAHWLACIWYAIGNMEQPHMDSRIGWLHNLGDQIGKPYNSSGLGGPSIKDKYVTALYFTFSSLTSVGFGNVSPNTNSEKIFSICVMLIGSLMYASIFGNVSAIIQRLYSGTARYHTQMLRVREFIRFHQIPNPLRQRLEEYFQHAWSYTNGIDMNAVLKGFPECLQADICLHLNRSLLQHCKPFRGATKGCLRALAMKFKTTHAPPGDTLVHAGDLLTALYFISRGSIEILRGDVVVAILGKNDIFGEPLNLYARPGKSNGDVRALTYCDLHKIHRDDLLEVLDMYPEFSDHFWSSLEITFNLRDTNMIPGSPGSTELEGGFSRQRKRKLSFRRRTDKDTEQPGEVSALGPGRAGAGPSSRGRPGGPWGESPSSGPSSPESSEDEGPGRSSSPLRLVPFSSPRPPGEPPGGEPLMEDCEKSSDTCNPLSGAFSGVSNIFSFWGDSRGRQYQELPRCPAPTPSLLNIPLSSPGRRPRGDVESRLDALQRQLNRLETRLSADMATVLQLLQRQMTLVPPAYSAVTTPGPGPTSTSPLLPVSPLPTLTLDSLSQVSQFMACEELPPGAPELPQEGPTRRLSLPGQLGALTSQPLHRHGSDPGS
# Target: Voltage-gated inwardly rectifying potassium channel KCNH2 (Homo sapiens) (UniProt Q12809)
# Test: modulators of KCNH2 ion channel function, cellular (AID 376);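 also: 0% = buffer alone and 100% = reference blocker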
# Conditions: hERG-expressing cells, channel activity single-concentration screen; concentration not given here
row,Compound,hERG blockade
1,CN1CCC(OC(=O)C(O)(c2ccccc2)C2CCCC2)C1 (stereo not drawn),inactive: -6.94%
2,CN1CCCC(OC(=O)C(O)(c2ccccc2)C2CCCC2)C1 (stereo not drawn),active: 20.9%
3,C=C(C)C#CC(O)(C(=O)OC1CCN(C)CC1)c1ccccc1 (stereo not drawn),inactive: -3.97%

# Source: PubChem BioAssay AID376 (PDSP, 2006)
